{"source": "patent US20020086027A1", "about": "“Composition and method for enhancing immunological memory response” (priority 1998, published 2002)", "tested_on": "human T cells", "test": "Secondary (recall) alloproliferative response of T cells primed in vitro", "type": "cell-based", "settings": "exogenous IL-2 alone during priming", "protocol": "In this system, we have used responses to first exposure as an indication of primary responses. When cells stimulated in this fashion are rested in culture and then restimulated with the same stimulator PBMCs, the 'recall' response measured are taken as an indication of immune memory. Proliferation is measured by the incorporation of radioactive tritiated thymidine in dividing cells. For priming, responder and stimulator cells mixed in 2-5 ml cultures in a ratio of 1:1-3:1. After five days of incubation, the cells were harvested, counted and viable cells used as primed responders with g-irradiated allostimulators in secondary alloproliferation assays, which were pulsed with (H^3)-thymidine after four days for estimating cell proliferation. For flow cytometric analysis, cells were separated from debris by Ficoll-Paque gradient centrifugation before staining. […] Cells were then harvested and washed extensively, and viable cells were counted and used as primed responders in a recall assay with freshly isolated and irradiated stimulator PBMCs or with graded doses of either IL-2 (Boenringer Mannheim Corp., […], Germany) or PHA (Boehnnger Mannheim Corp.), along with 1×10^5 irradiated responder PBMCs.", "data": [{"substance": "IL-2: recombinant IL-2 (Boehringer Mannheim)", "values": [{"measurement": "recall capability", "value": "does neither enhance"}]}]}
